Consider 1 substance from patent US20240042045A1, “NANOPARTICLES CONTAINING MULTIPLE CLEAVABLE PRODUGS FOR CANCER THERAPY” (The University of Chicago, priority 2020, published 2024).

The test system of the data set is CT26 and MC38 cells. The following applies: concentrations up to 300 μM.

Consider 20-O-tert-butyl-SN38 [SN38-Bu], for which the cytotoxicity result was “no cytotoxicity”.
